In PMC2096194 (Nature structural & molecular biology, 2007):

Biological target: RAD51 80-339 (UniProt Q06609)
Test: biotin-peptide streptavidin pull-down, anti-RAD51 blot
Details: reference: unphosphorylated BRCA2Exon 27 peptide; sites S3291

- binding against the reference: lost
Substance: BRCA2 3270-3305 (from UniProt P51587) pS3291 peptide (BRCA2Exon 27-Ph)
